# Source: BindingDB's records for doi:10.1021/jm00049a020 (Pharmacia-Farmitalia Carlo Erba, 1994)
# Biological target: T1, Neutrophil elastase (Homo sapiens, UniProt P08246)
# T1 sequence (P08246 whole entry): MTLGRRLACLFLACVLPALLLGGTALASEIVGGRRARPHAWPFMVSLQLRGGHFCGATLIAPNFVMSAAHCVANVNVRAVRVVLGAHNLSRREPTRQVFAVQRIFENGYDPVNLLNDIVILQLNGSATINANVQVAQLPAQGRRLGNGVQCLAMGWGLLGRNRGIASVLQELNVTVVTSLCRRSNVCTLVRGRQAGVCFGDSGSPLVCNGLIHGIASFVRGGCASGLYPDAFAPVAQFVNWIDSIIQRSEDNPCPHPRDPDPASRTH
# Test: Tested for the rate constant against Human Leukocyte Elastase (HLE) inactivation
# Conditions: read-out: kon (M-1-s-1)
# Outline: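 HLE from human sputum, active-site titrated with MeO-Suc-Ala-Ala-Pro-Val-CH2Cl; 1–3 nM active enzyme. […] Substrate and inhibitor concentrations varied to derive kon and Ki(ss).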
row,SMILES,kon [M⁻¹ s⁻¹]
1,"CO[C@H]1C(=O)N2C(C(=O)C(C)(C)C)=C(CSc3nnnn3C)CS(=O)(=O)[C@H]12 [(6R,7S)-2-(2,2-Dimethyl-propionyl)-7-methoxy-3-(1-methyl-1H-tetrazol-5-ylsulfanylmethyl)-5,5-dioxo-5lambda*6*-thia-1-aza-bicyclo[4.2.0]oct-2-en-8-one]",19000
2,"CO[C@H]1C(=O)N2C(C(=O)c3ccccc3)=C(CSc3nnnn3C)CS(=O)(=O)[C@H]12 [(6R,7S)-2-Benzoyl-7-methoxy-3-(1-methyl-1H-tetrazol-5-ylsulfanylmethyl)-5,5-dioxo-5lambda*6*-thia-1-aza-bicyclo[4.2.0]oct-2-en-8-one]",18000
